The values that follow are results of earlier work, collected in paper PMC11329750 (Clinical and Translational Science, 2024).

As usually defined, the EC50 is the concentration that produces a half-maximal response.

This data set has as its system pregnane X receptor (PXR). Conditions: read-out: EC50 of binding to the PXR binding pocket; cited from earlier work.

Turning to hyperforin, the EC50 was 32 nM.
